Data as given in paper PMC2838185 (Chemical biology & drug design, 2009).

Target: T1, C. glabrata DHFR (CgDHFR) (Candida glabrata, UniProt Q6FPH0)
T1 sequence (Q6FPH0 1-217): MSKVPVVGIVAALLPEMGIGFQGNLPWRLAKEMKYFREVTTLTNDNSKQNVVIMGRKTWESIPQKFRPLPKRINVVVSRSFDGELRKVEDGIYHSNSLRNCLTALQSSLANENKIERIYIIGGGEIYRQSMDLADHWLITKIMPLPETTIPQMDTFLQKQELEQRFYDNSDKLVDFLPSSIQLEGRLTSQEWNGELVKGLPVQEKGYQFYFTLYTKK
Type: biochemical
Details: Table 1; human DHFR over CgDHFR

COc1ccc(-c2cc(OC)cc(C(C)C#Cc3c(C)nc(N)nc3N)c2)cc1 (stereo not shown) [Compound 25, 2,4-diamino-5-[3-(3-methoxy-5-(4-methoxyphenyl)phenyl)but-1-ynyl]-6-methylpyrimidine]
Selectivity, IC50 (h)/IC50 (Cg): 28
